# Reference: article PMC3499949 (Journal of medicinal chemistry, 2012)
# The chains behind the UniProt entries cited, without tags or fusion partners. Where a name states a change or a piece, a line headed by the entry shows the natural chain unless it says otherwise.
# UniProt P41145: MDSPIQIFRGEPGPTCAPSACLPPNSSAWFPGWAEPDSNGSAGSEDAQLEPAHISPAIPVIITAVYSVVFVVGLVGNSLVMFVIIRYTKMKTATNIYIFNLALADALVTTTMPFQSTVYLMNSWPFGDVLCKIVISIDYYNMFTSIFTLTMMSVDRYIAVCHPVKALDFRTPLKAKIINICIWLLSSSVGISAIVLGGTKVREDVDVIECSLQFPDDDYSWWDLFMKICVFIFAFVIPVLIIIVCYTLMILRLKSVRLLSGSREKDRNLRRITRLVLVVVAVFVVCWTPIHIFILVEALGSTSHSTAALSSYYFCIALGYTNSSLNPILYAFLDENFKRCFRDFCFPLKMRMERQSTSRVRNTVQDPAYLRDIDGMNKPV
# Columns and labels:
# hKOR [1] = biological target: T1, hKOR (Homo sapiens, UniProt P41145); assay: [35S]GTP-γ-S binding assay, agonist stimulation, KOR; format: biochemical; conditions: stimulation of [35S]GTP-γ-S binding; no stim = no stimulation at 10 µM
# hKOR [2] = biological target: T1, hKOR; assay: [35S]GTP-γ-S binding assay, antagonist shift design, KOR; format: biochemical
compound,measurement,setting,value
"Oc1ccc2c3c1O[C@H]1c4ncc(-c5ccc(Cl)cc5)cc4C[C@@]4(OCCCc5ccccc5)[C@@H](C2)N(CC2CC2)CC[C@]314 [17d, 5′-(4-Chlorophenyl)-17-(cyclopropylmethyl)-6,7-didehydro-4,5α-epoxy-3-hydroxy-14-(3-phenylpropoxy)pyrido[2′,3′:6,7]morphinan]",KOR EC50,hKOR [1],no stim
same,Kb,hKOR [2],1.35 ± 0.28 nM
